Values quoted from earlier work in patent publication US6664393B2 (priority 1999, dated 2003).

By UniProt entry, the sequences of proteins in these tests, tags left out. Where a name states a change or a piece, a line headed by the entry shows the natural chain unless it says otherwise.
UniProt P00742: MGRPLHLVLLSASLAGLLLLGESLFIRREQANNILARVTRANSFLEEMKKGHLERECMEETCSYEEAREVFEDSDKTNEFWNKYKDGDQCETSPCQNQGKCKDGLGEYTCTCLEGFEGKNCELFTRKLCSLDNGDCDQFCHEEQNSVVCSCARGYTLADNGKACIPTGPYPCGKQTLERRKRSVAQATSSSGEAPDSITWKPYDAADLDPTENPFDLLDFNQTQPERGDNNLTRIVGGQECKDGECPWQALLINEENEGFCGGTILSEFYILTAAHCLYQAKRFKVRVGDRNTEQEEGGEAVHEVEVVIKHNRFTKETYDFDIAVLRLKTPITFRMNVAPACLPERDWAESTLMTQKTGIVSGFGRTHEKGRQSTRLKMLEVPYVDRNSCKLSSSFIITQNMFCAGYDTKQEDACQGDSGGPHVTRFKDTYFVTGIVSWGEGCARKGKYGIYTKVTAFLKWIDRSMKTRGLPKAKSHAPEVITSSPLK

Biological target: factor Xa (Homo sapiens, UniProt P00742)
Conditions: read-out: Ki for factor Xa; background, previously reported inhibitors; cited from earlier work

Substance	Ki [nM]
antistasin	0.05
tick anticoagulant peptide	0.5
